Source: patent publication US20260035385A1, “BENZO NITROGEN-CONTAINING HETEROAROMATIC RING DERIVATIVE AND USE THEREOF IN MEDICINE” (Xizang Haisco Pharmaceutical Co., Ltd., priority 2021, published 2026)

Test: Caco2 permeability test
Assay type: in vitro ADME
Conditions: human, pH 7.4, Caco-2 monolayer
Description: The experiment used a monolayer of Caco-2 cells incubated in triplicate in a 96-well Transwell plate. […] Acetonitrile containing internal standard was then added to precipitate the protein. […] The integrity of the cell monolayer after 2 h of incubation was assessed by leakage of Lucifer Yellow.

| SMILES | efflux ratio at 2 h, 2 μM |
| --- | --- |
| COc1cc(C)c2[nH]ccc2c1CN1CC[C@@H](C2CC2)C[C@H]1c1ccc(C(=O)O)cc1 [Trifluoroacetate of compound 5 (diastereomer 1), 4-((2S)-4-cyclopropyl-1-((5-methoxy-7-methyl-1H-indol-4-yl)methyl)piperidin-2-yl)benzoic acid] | 11 |
| [2H]C([2H])([2H])Oc1cc(C)c2[nH]ccc2c1CN1CC[C@H](C2CC2)C[C@H]1c1ccc(C(=O)O)cc1 [Trifluoroacetate of compound 7 (diastereomer 1), 4-((2S)-4-cyclopropyl-1-((5-(methoxy-d3)-7-methyl-1H-indol-4-yl)methyl)piperidin-2-yl)benzoic acid] | 11 |
